Laboratory results: patent publication US11420970B1 (NOVARTIS AG, priority 2019, dated 2022)

Amino acid sequences for entries named in this document (tags omitted).
UniProt O96028, whole entry: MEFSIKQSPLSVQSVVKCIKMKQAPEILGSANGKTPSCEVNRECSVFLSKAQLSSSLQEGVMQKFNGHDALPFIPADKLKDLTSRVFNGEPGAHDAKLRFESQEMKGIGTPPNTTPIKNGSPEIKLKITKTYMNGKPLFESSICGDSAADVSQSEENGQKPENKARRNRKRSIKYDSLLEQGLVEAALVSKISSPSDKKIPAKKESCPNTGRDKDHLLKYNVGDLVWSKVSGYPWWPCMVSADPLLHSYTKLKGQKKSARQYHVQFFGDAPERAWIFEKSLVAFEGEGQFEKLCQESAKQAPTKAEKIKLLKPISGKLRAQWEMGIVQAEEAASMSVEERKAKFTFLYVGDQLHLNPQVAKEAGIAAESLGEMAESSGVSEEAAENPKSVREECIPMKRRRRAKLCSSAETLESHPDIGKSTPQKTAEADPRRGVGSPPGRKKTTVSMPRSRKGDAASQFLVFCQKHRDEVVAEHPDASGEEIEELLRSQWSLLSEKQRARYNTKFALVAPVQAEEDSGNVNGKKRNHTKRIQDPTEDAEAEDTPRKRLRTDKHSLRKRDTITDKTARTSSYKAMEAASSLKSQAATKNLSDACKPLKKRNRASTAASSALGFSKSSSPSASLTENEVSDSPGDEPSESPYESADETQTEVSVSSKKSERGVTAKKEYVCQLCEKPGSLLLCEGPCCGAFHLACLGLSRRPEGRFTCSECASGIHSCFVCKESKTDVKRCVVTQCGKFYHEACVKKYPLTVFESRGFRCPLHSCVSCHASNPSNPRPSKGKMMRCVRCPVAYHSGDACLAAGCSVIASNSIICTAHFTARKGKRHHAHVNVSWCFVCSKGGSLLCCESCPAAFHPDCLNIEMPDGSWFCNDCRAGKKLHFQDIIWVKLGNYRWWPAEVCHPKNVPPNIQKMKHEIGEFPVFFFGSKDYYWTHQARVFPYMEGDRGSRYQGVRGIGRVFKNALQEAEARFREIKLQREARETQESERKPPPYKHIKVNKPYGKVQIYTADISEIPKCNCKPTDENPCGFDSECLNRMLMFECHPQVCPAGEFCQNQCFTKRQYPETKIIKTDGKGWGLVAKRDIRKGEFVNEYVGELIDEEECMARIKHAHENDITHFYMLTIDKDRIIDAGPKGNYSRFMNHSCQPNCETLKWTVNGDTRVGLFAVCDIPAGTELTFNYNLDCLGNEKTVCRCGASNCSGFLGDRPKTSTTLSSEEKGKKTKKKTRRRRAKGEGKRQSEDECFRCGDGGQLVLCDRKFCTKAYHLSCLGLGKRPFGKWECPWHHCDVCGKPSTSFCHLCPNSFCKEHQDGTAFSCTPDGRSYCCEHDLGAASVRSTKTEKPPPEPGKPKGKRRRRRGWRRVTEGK

Experiments:
NSD2 [1-1365] = NSD2 [1-1365] (Homo sapiens (Human), UniProt O96028); experiment: LC-MS/MS-based NSD2 enzymatic assay (SAH production); settings: read-out: NSD2 IC50
[1] = system: cellular H3K36me2 level in multiple myeloma cell line KMS11 (t(4;14)+); experiment: H3K36me2 cellular FRET assay in KMS11-Par line; type: cell-based; settings: read-out: H3K36me2 FRET in KMS11-Par
[2] = system: cellular H3K36me2 level in multiple myeloma cell line KMS11 (t(4;14)+); experiment: H3K36me2 cellular ELISA assay in KMS11-Par line; type: cell-based; settings: read-out: H3K36me2 ELISA in KMS11-Par, 72 hours

What does the source list for `Nc1ncnc2c1ncn2Cc1cc(-c2ccc(F)c(F)c2)ncc1N1CCC[C@](N)(Cn2cccn2)C1`?
IC50 (NSD2 [1-1365]): 0.01 to 1 µM; IC50 [1]: 0.336 µM; IC50 [2]: 1.41 µM
